Laboratory results published in publication PMC6885504 (American Journal of Cardiovascular Drugs, 2019).

Assay type: in vivo, human
Settings: with vs without concomitant clarithromycin

For `COc1ccc(-n2nc(C(N)=O)c3c2C(=O)N(c2ccc(N4CCCCC4=O)cc2)CC3)cc1` [Apixaban], the “change in tmax and half-life of apixaban” value was “unchanged” and the “change in tmax and half-life of apixaban” value (listed as apixaban) was “comparable; also recorded: no change; also recorded: little to no impact”.

Entries after “also recorded” stand apart in the source; their conditions may differ. Where two headings read alike, the source gives them in different places.
